# Results: PubChem BioAssay AID686940 (The Scripps Research Institute Molecular Screening Center, 2013)
# By UniProt entry, the sequences of proteins in these tests, tags left out.
# UniProt P24468, whole entry: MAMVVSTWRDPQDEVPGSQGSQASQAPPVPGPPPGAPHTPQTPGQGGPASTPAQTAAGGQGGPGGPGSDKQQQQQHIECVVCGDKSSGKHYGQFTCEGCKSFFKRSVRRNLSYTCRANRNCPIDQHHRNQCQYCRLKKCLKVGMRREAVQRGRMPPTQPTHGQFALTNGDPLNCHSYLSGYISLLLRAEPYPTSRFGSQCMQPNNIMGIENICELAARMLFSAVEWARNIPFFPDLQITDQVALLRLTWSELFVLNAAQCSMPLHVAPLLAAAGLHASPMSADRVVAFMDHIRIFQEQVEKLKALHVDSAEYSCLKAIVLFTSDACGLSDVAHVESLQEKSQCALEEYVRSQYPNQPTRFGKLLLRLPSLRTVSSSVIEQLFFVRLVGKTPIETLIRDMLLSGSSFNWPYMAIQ
# The entries are a selection whose mix differs from that of the whole data set. Some tests of the compounds listed are not included; inactive here does not mean inactive elsewhere. Calls of active or inactive are those of the source.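 The calls were made as follows: active = inhibition above a per-plate cutoff, mean inhibition of test wells between control levels plus 3 SD (cut at about 38% in these data); inactive = the rest.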
# Molecular target: COUP transcription factor 2 (Homo sapiens) (UniProt P24468)
# Assay: NR2F2 transcriptional activity inhibitors, primary screen, cell-based, luciferase reporter, HEK293T, luminescence (AID 686940);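 also: cells cotransfected with COUP-TFII expression vector driving the NGFI-A reporter; 0% = median of COUP-TF2 test wells and 100% = reporter-only cells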
# Conditions: HEK293T NGFI-A luciferase reporter, at 8.6 µM, active compounds read high
row,SMILES,inhibition
1,O=C(OC1CN2CCC1CC2)C(CO)(c1ccccc1)c1ccccc1 (stereo unspecified),inactive: 1.83%
2,CN(C)c1cccc(C(=O)NCC2(N(C)C)CCCCC2)c1,inactive: -13.5%
3,O=C(OCCN1CCCC1)C(O)(c1ccccc1)c1ccccc1,inactive: 15.6%
4,CC(C)Oc1ccc(C(=O)NCC2(N(C)C)CCCCC2)cc1,inactive: 6.01%
5,COc1ccc(Br)c(C(=O)NCC2(N3CCCCC3)CCCCC2)c1,inactive: -0.36%
6,C=C(C)C#CC(O)(C(=O)OC1CCN(C)CC1)c1ccccc1 (stereo unspecified),inactive: 6.49%
7,COc1cc(C(=O)NCC2(N(C)C)CCCCC2)c([N+](=O)[O-])cc1OC,inactive: -7.48%
8,CN(C)C1(CNC(=O)c2ccc(Br)cc2)CCCCC1,inactive: 12.2%
9,O=C(NCC1(N2CCCCC2)CCCCC1)c1cccc(Cl)c1,inactive: 10.8%
10,COc1ccc(Cl)cc1C(=O)NCC1(N(C)C)CCCCC1,inactive: -35.2%
11,COc1cccc(C(=O)NCC2(N3CCCCC3)CCCCC2)c1,inactive: 1.55%
12,CN(C)c1ccc(C(=O)NCC2(N(C)C)CCCCC2)cc1,inactive: -0.51%
13,CN(C)C1CCCC1OC(=O)C(O)(c1ccccc1)c1ccccc1 (stereo unspecified),inactive: 6.76%
14,Cc1ccccc1C(=O)NCC1(N2CCCCC2)CCCCC1,inactive: 19.3%
15,O=C(NCC1(N2CCCCC2)CCCCC1)c1cccc(Br)c1,inactive: -15.5%
16,CCN1CCCC(OC(=O)C2(O)c3ccccc3C=Cc3ccccc32)C1 (stereo unspecified),inactive: 5.15%
17,Cc1cc(C(=O)NCC2(N3CCCCC3)CCCCC2)ccc1[N+](=O)[O-],inactive: -2.93%
18,COc1ccc(C(=O)NCC2(N(C)C)CCCCC2)cc1,inactive: 12.6%
19,O=C(NCC1(N2CCCCC2)CCCCC1)c1cc(F)c(F)cc1Cl,inactive: -3.62%
20,C=CCN1CCN(CCOC(=O)C(O)(c2ccccc2)c2ccccc2)CC1,inactive: -5.19%
21,CN1[C@@H]2CC[C@H]1CC(OC(=O)C(O)(c1ccccc1)c1ccccc1)C2 (stereo partly specified),inactive: 3.03%
22,O=C(NCC1(N2CCCCC2)CCCCC1)c1cc([N+](=O)[O-])ccc1Cl,inactive: -0.03%
23,Cc1ccc(C(=O)NCC2(N3CCCCC3)CCCCC2)cc1,inactive: 1.24%
24,CC(C)N1C(=O)CC2(CCN(CCOC(=O)C(O)(c3ccccc3)c3ccccc3)CC2)C1=O,inactive: -7.99%
25,COc1cc(SC)ccc1C(=O)NCC1(N(C)C)CCCCC1,inactive: -6.01%
26,CCN(CC)CC(C)C(C)OC(=O)C(O)(c1ccccc1)c1ccccc1 (stereo unspecified),inactive: 12.8%
